Tested on: THP-1
Assay: Effective dose against monocyte chemoattractant protein-1(MCP-1) induced leukocyte migration of THP-1 cells
Type: functional
Conditions: Homo sapiens, read-out: ED50 (the source's name)
How it was run: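 Trans-well microtiter migration of human myelomonocytic THP-1 cells toward 25 ng/mL MCP-1 in Gey's balanced salt solution with 1 mg/mL endotoxin-free BSA, no fetal calf serum, 2 h at 37 °C. Compound is in both compartments, DMSO 1% final, tested up to 100 μM. Migrated cells are counted by MTT as % of vehicle-only migration. ED50 is the concentration giving 50% reduction; triplicate determinations.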

## CC(C)[C@H](NC(=O)[C@@H](N)Cc1c[nH]c2ccccc12)C(=O)N[C@@H](CCC(N)=O)C(=O)O
  EC50: 4 µM
